{"source": "patent US20130202629A1", "about": "“USES OF PHOSPHOLIPID CONJUGATES OF SYNTHETIC TLR7 AGONISTS” (The Regents of the University of California, priority 2010, published 2013)", "target": "T1, TLR7 (Homo sapiens, UniProt Q9NYK1)", "T1 sequence (Q9NYK1 27-1049)": "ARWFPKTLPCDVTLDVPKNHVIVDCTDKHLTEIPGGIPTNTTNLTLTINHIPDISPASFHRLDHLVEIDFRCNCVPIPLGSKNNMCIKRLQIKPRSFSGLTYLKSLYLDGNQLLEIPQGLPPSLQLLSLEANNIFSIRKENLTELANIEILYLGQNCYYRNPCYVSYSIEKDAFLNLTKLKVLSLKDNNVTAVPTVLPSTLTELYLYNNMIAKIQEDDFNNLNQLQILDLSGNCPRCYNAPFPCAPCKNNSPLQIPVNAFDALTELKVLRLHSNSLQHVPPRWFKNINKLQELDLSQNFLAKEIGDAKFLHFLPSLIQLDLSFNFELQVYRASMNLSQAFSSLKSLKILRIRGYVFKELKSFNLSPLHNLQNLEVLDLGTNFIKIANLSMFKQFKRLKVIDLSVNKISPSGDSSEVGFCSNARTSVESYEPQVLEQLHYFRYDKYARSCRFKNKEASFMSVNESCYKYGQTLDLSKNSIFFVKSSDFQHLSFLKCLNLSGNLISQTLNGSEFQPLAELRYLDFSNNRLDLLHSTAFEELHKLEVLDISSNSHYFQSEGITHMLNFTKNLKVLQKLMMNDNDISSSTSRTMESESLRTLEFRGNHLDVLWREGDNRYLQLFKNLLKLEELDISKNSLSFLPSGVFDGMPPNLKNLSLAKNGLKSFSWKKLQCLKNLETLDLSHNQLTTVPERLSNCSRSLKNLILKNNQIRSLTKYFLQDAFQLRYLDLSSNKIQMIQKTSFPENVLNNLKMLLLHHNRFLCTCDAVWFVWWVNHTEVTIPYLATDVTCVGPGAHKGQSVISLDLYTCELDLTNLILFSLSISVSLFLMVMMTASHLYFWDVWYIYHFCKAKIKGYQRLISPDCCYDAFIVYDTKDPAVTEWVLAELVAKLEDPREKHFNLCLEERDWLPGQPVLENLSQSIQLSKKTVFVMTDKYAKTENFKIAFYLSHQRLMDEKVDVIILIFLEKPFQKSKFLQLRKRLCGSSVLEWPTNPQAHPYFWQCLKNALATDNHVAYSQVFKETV", "assay": "Cytokine induction (IL-6, IFNalpha1; Luminex) in human PBMC", "assay_type": "cell-based", "settings": "18 hours, IL-6 (FIG. 3A)", "note": "“And” between values parts separate entries of the source, which are not always exact repeats. Equal entries are not always repeated.", "data": [{"molecule": "COCCOc1nc(N)c2nc(O)n(Cc3ccccc3)c2n1", "note": "[SM, 9-benzyl-8-hydroxy-2-(2-methoxyethoxy) adenine, reference compound]", "values": [{"measurement": "order of TLR7 conjugate potency", "result": "(4b)>(6)>(9)>/=SM>(8) and 4b>6>9>SM=8"}]}]}
